The numbers were not newly measured in patent US9386796B2, “Method for infusing calcium phosphate in water, juices and water beverages” (priority 2003, dated 2016), which cites them from elsewhere.

For the data set the following is noted: after ingestion of tablets.

Take calcium carbonate: the absorption entry is reported as “about 28%”.
